Measured values: patent publication US20080039376A1, “Use of Cyclic Anabaenopeptin-type Peptides for the Treatment of a Condition Wherein Inhibition of Carboxypeptidase U is Beneficial, Novel Anabaenopeptin Derivatives and Intermediates Thereof” (A[…], priority 2003, published 2008)

By UniProt entry, the sequences of proteins in these tests, tags left out. Residues count along the entry.
UniProt Q96IY4, 115-423 limits assumed: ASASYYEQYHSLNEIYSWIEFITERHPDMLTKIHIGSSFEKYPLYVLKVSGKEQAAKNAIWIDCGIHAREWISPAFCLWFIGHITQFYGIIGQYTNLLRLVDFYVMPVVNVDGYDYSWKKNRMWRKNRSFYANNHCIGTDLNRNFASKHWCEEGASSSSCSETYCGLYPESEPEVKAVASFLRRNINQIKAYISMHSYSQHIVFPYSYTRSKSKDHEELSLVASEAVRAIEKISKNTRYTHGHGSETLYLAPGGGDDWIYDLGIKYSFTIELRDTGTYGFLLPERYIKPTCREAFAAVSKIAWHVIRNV

Molecular target: carboxypeptidase U (Homo sapiens, UniProt Q96IY4)
Experiment: carboxypeptidase U inhibition assay (Hendriks et al., Clin. Chem. 1985), substrate concentration 4 mM
Conditions: substrate concentration of 4 mM
Method: The inhibiting effect of the compounds of the present invention was estimated using the assay described in: Dirk Hendriks, Simon Scharpé and Marc van Sande, Clinical Chemistry, 31, 1936-1939 (1985); and Wei Wang, Dirk F. Hendriks, Simon S. Scharpé, The Journal of Biological Chemistry, 269, 15937-15944 (1994), using a substrate concentration of 4 mM.
The activities of certain Examples in the assay described in: Dirk Hendriks, Simon Sharpé and Marc van Sande, Clinical Chemistry, 31, 1936-1939 (1985), using a substrate concentration of 4 mM, are presented in Table I below.

CC(C)C[C@@H]1NC(=O)[C@H](C)NC(=O)[C@H](NC(=O)N[C@@H](CCCNC(=N)N)C(=O)O)CCCCNC(=O)[C@H](C)NC(=O)[C@H](CC(C)C)N(C)C1=O
IC50: 200 nM
